{"sequences": {"note": "Chains of the proteins cited; added tags and fusions are not shown.", "UniProt P34913, whole entry": "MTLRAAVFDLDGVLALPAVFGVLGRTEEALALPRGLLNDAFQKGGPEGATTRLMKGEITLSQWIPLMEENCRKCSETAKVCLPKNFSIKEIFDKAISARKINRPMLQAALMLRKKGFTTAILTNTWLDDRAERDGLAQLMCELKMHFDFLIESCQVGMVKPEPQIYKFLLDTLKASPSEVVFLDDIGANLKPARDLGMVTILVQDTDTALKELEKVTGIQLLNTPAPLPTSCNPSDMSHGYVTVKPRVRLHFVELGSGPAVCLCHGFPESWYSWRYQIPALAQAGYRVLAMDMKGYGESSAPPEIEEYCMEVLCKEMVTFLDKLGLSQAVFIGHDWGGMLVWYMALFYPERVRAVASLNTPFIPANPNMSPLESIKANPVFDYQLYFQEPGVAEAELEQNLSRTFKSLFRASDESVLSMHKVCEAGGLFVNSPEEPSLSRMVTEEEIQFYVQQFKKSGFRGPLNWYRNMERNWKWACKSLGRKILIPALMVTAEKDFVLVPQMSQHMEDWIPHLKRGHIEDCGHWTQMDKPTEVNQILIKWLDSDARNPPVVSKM"}, "source": "patent US9127027B2", "about": "“Epoxyeicosatrienoic acid analogs and methods of making and using the same” (The Medical College of Wisconsin, Inc., priority 2011, dated 2015)", "target": "Human recombinant sEH (Homo sapiens (Human), UniProt P34913)", "experiment": "Soluble epoxide hydrolase inhibition (PHOME fluorescent substrate)", "format": "biochemical", "protocol": "Compounds were tested for their ability to inhibit recombinant soluble epoxide hydrolase (sEH) protein. The assay utilizes (3-Phhenyl-oxiranyl)-acetic acid cyano-(6-methoxy-naphthalen-2-yl)-methyl ester (PHOME), a sensitive substrate for sEH that can be used to monitor the activity of both human and murine enzymes. Hydrolysis of the substrate epoxide yields a highly fluorescent product, 6-methoxy-2-Naphthaldehyde, which can be monitored at excitation and emission wavelengths of 330 and 465 nm, respectively. See Wolf et al., Anal Biochem 355:71-80, 2006 PMID: 16729954. Human recombinant sEH was incubated with substrate and compounds ranging in concentration from 0.1 to 1000 nM.", "note": "Like-named read-outs stand apart in the source and are kept apart here."}
{"smiles": "CCCCCNC(=O)NCCCC/C=C\\CCCCCCC(=O)N[C@@H](CC(=O)O)C(=O)O", "note": "(stereo in doubt) [Compound 7, (S)-2-(13-(3-n-Pentylureido)tridec-8(Z)-enamido)succinic acid]", "values": [{"measurement": "IC50", "setting": "Table 1 head prints μM (Table 2 prints nM for same numbers), read-out: sEHi IC50", "value": 0.392, "unit": "µM"}, {"measurement": "IC50", "setting": "Table 2, read-out: SEHi activity IC50", "value": 0.392, "unit": "µM"}]}
